The values below come from PMC5155509 (ChemMedChem, 2016).

One assay concerns S. aureus. Kind of assay: Synergy/antagonism two-drug combination assay, S. aureus. It counts as cell-based, Staphylococcus aureus. As to conditions: for FIC Index: combination of the antibiotic with 7, mean±SD.
Another assay relates to B. subtilis. The experiment in a line: Synergy/antagonism two-drug combination assay, B. subtilis. In kind it is cell-based, Bacillus subtilis.
Where [1] appears, read: antibiotic in combination with 7, mean±SD duplicate.

As to `NC[C@H]1O[C@H](O[C@H]2[C@H](O)[C@@H](O[C@H]3O[C@H](CO)[C@@H](O)[C@H](N)[C@H]3O)[C@H](N)C[C@@H]2N)[C@H](O)[C@@H](O)[C@@H]1O` [Kanamycin, kanamycin], the MIC antibiotic with S. aureus (antibiotic alone) and with B. subtilis (antibiotic alone) was 1.5 µg/mL throughout. Moreover, the FIC antibiotic with S. aureus (setting [1]) is 0.89 ± 0.68; in the assay on B. subtilis (setting [1]), 0.64 ± 0.14. The “FIC Index” value in the assay on S. aureus is listed as 1.72 ± 0.74; in the assay on S. aureus (listed as kanamycin), 1.72; in the assay with B. subtilis (combination of the antibiotic with 7, mean±SD) it was 1.36 ± 0.33.
